System: adult hippocampus-derived neural progenitor cells
Experiment: in vitro differentiation analysis of neural progenitor cells (immunocytochemistry for lineage markers)
Type: cell-based, rat
Procedure: The neural progenitor cells isolated from the hippocampus of female Fischer 344 used in this study have been characterized previously (Gage et al., 1995; Palmer et al., 1997). The whole brain-derived neural stem cells from PIO ICR mice were isolated and cultured according to the methods as described, with slight modifications. Cells were cultured as previously described (Gage et al., 1995; Ray et al., 1993). Cells between passages 10 and 20 were used for in vitro differentiation analyses. To induce differentiation, cells were plated into 4-well chamber slides at a density of 55,000-75,000 cells per well and were allowed to proliferate in N2-supplemented (Invitrogen) DMEM:F12 (Omega Scientific) medium containing 20 ng/ml FGF-2 (PeproTech, Inc.) for 24 hours. FGF-2 was then withdrawn and cells were subsequently treated with differentiation media. Differentiation conditions were either N2 medium with 1 μM RA (Sigma) and 1% FBS (Omega Scientific) for 4 days (mixed); 1 μM RA and 5 μM FSK (Sigma) for 4 days (neuronal), or 50 ng/ml LIF (Chemicon International Inc.) and 50 ng/ml BMP2 (R&D Systems) for 6 days (astrocytic) (Nakashima et al., 1999). For IGF-induction experiments, cells were trypsinized, washed with 1× PBS, and plated into insulin-free N2 medium. Either human recombinant IGF-I or IGF-II (500 ng/ml; R&D Systems) or insulin (500 ng/ml; Sigma) was added for 4 days, except when indicated otherwise. […]
Cells were fixed with 4% paraformaldehyde, followed by immunocytochemical staining as described (Palmer et al., 1999). […] Quantification of cell phenotypes was with StereoInvestigator (MicroBrightfield Inc.); for each marker, 500-1000 cells were sampled systematically from standardized fields at 40×magnification. For quantification of live/dead cells, images were taken of cultures live-stained with propidum iodide (1 μg/ml; Molecular Probes) and Hoescht 33342 (1 μg/ml; Sigma) at 10×magnification, and cells were counted using Image-Pro (Media Cybernetics). […]

B1: BMP2: bone morphogenetic protein-2 (R&D Systems) (protein, UniProt P12643 283-396, looked up)
Bone morphogenetic protein 2: QAKHKQRKRLKSSCKRHPLYVDFSDVGWNDWIVAPPGYHAFYCHGECPFPLADHLNSTNHAIVQTLVNSVNSKIPKACCVPTELSAISMLYLDENEKVVLKNYQDMVVEGCGCR
BMP2 0.05-0.5 ng/ml with 500 ng/ml IGF-I
  oligodendrocyte differentiation at lower BMP2 concentrations: partial differentiation could still be observed
BMP2 5-50 ng/ml with 500 ng/ml IGF-I
  oligodendrocyte differentiation at higher BMP2 concentrations: greater suppression of oligodendrocyte differentiation
Added in the presence of 500 ng/ml IGF-I, 4-day cultures
  oligodendrocyte differentiation (RIP+ cells) vs IGF-I alone: suppression of oligodendrocyte differentiation

Source: US20050148069A1, “IGF-1 instructs multipotent adult CNS neural stem cells to an oligodendroglial lineage” (priority 2003, published 2005)
